The record followed here is US11987575B2, “Tricyclic compounds as BCR-ABL inhibitors” (ASCENTAGE PHARMA (SUZHOU) CO., LTD., priority 2019, dated 2024).

Protein sequences, listed by entry. Tags and fused reporters are not part of them. Lines headed by an entry give the natural chain unless they say otherwise; changes in a name come on top.
UniProt P00519, whole entry: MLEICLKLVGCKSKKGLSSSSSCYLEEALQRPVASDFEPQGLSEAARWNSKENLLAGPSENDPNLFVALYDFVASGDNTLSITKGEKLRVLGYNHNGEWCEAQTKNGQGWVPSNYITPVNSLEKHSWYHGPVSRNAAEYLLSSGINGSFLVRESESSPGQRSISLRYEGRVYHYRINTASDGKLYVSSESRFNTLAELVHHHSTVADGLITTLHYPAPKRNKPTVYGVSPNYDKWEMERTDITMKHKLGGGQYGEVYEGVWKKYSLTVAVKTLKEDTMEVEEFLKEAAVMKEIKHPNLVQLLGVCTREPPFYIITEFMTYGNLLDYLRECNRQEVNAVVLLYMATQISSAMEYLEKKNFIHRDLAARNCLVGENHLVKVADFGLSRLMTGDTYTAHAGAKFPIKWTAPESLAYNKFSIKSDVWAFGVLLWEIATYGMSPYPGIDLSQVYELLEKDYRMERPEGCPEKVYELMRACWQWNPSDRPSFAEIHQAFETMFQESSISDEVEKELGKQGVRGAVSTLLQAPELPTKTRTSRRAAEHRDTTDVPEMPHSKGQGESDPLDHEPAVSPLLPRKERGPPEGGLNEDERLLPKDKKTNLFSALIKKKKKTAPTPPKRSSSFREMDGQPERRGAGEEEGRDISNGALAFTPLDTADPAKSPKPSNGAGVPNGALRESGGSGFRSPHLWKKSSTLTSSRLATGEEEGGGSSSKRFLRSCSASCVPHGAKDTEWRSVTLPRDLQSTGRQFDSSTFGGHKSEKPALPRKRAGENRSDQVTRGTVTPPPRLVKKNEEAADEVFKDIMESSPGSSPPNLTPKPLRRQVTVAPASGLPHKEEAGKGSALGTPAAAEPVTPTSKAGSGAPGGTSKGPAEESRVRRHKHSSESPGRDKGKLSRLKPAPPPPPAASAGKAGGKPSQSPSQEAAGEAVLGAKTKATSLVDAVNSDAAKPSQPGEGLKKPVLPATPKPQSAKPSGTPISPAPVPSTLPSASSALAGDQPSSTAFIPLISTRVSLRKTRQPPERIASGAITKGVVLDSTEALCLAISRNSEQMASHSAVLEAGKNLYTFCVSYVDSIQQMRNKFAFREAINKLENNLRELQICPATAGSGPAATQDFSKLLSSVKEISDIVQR
UniProt P00519, whole entry T315I: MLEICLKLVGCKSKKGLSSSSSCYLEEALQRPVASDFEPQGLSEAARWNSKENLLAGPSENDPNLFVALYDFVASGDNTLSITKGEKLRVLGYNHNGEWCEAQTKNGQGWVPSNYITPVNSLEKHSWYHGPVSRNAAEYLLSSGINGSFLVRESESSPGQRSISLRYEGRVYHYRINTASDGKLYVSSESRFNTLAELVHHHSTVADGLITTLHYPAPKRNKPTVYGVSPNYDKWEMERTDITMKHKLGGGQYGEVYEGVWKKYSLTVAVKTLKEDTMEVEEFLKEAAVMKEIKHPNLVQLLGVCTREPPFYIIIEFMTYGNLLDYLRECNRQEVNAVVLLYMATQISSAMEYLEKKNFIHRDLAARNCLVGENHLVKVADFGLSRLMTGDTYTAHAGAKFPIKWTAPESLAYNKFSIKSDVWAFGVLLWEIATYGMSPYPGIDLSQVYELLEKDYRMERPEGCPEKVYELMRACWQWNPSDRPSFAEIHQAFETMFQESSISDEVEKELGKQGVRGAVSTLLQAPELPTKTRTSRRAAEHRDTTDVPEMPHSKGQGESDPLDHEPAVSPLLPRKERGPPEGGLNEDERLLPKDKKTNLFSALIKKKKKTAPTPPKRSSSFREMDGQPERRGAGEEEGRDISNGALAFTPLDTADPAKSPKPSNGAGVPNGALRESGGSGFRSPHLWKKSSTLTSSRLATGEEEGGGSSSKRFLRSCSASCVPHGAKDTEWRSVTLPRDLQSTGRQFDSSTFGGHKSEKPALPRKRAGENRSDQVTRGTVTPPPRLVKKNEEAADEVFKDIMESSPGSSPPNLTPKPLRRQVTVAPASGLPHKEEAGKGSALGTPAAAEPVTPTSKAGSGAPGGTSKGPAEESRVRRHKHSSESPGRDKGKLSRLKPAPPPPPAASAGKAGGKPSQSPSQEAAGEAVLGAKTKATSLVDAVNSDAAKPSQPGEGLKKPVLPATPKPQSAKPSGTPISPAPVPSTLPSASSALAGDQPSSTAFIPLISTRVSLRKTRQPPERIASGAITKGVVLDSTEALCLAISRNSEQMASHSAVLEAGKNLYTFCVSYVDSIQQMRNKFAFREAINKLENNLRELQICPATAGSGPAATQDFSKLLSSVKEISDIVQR

For one test, the target named is BaF3(WT) (Homo sapiens, UniProt P00519). The experiment in a line: WST (CCK-8) anti-proliferative assay, BaF3 WT. Particulars: read-out: BaF3(WT); BaF3 WT cells, 72 h treatment, CCK-8 readout OD 450 nm.
A further test has as its target BaF3 (T315I mutant) (Homo sapiens, UniProt P00519, T315I, cells depend on it). The experiment in a line: WST (CCK-8) anti-proliferative assay, BaF3 T315I mutant. Particulars: read-out: BaF3 (T315I mutant), 72 h treatment, CCK-8 readout OD 450 nm.

Regarding `CC(C)(C)CN1c2c(-c3ccn[nH]3)cc(C(=O)Nc3ccc(OC(F)(F)Cl)cc3)cc2C2CCS(=O)(=O)CC21` (single isomer, unassigned), the GI50 turned out to be 28 nM at BaF3(WT) and 123 nM at BaF3 (T315I mutant).

As for `CC(=O)NC1CCC2c3cc(C(=O)Nc4ccc(OC(F)(F)Cl)cc4)cc(-c4ccn[nH]4)c3N(C(C)C)C12` (single isomer, unassigned) [4A], the GI50 was 3 nM at BaF3(WT) and 35 nM at BaF3 (T315I mutant).

For the molecule `CC(=O)NC1CCC2c3cc(C(=O)Nc4ccc(OC(F)(F)Cl)cc4)cc(-c4ccn[nH]4)c3N(C(C)C)C12` (single isomer, unassigned) [4b], the values for the GI50 on BaF3(WT) and on BaF3 (T315I mutant) were 535 nM and 1270 nM, respectively.
